Measurements as given in patent publication US20250025411A1, “READILY SOLUBLE AND THERMOSTABLE GLUCAGON FORMULATIONS AND DELIVERY FOR MINI-DOSING AND CLOSED -LOOP PROPHYLACTIC TREATMENT OF HYPOGLYCEMIA” (Massachusetts Institute of Technology, priority 2023, published 2025).

Experiment: High throughput screening of water-soluble solid excipients for glucagon dissolution
Type: physicochemical
Details: pH 7.4

With Sodium Thiosulfate as the substance, how does the “Glucagon concentration Avg.” value read?
Its value is 0.60 mg/mL.
